Results taken from ChEMBL document CHEMBL2429783, “Discovery of epigenetic regulator I-BET762: lead optimization to afford a clinical candidate inhibitor of the BET bromodomains” (J Med Chem, 2013).

Chains of the proteins cited; added tags and fusions are not shown.
UniProt Q15059, whole entry: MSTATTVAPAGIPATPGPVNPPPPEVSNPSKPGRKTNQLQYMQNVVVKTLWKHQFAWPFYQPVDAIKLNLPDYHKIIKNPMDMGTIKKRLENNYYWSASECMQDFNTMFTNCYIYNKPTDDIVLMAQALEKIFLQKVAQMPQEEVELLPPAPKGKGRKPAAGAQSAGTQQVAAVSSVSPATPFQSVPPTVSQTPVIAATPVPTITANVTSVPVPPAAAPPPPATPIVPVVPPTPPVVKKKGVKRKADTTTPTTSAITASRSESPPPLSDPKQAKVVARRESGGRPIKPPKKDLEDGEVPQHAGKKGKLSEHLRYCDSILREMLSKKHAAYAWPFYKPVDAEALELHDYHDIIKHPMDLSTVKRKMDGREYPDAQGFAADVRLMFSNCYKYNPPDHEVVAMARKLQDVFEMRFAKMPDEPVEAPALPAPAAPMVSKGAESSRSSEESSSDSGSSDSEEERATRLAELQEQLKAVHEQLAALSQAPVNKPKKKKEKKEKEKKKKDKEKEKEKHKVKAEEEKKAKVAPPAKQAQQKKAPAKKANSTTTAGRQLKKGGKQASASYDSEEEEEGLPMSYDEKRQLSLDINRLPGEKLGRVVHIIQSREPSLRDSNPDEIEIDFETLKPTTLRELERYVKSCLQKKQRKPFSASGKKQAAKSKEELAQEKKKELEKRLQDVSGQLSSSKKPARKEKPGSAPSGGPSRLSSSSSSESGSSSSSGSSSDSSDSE

Molecular target: Bromodomain-containing protein 3 (Homo sapiens, UniProt Q15059)

**Q.** With `Cc1nnc2n1-c1ccccc1C(c1ccccc1)=NC2NC(=O)OCc1ccccc1` (stereo unspecified) as the compound, how does the IC50 read?
**A.** 631 nM
